Measured values from patent publication US12202828B2, “Bicyclic heterocycle compounds and their uses in therapy” (ASTEX THERAPEUTICS LIMITED, priority 2013, dated 2025).

Tested on: SK-MEL-28
Assay: Combination protocol for apoptosis, SK-MEL-28
Assay type: cell-based, human
Conditions: for % Apoptosis Combination: agent 500 u/ml with Example 2 0.1 μM + 1 ng/ml TNF-α, 24 h; for Fold Increase: combination (agent 500 u/ml) relative to Example 2 0.1 μM + TNF-α alone
Text: No increase in apoptosis was seen over this time scale with the combination agent shown in the first column of the table alone (with or without TNF-α)—data not shown.

Molecule | % Apoptosis Combination [%] | Fold Increase
Interferon-α2 | 53.9 | 1.3
Interferon-β (protein, UniProt P01574 22-187, looked up) Interferon beta: MSYNLLGFLQRSSNFQCQKLLWQLNGRLEYCLKDRMNFDIPEEIKQLQQFQKEDAALTIYEMLQNIFAIFRQDSSSTGWNETIVENLLANVYHQINHLKTVLEEKLEKEDFTRGKLMSSLHLKRYYGRILHYLKAKEYSHCAWTIVRVEILRNFYFINRLTGYLRN | 70.9 | 1.7
